# Target: T1, Concanavalin A (Con A) (Canavalia ensiformis, UniProt P02866)
# T1 construct: purchased Sigma
# Format: binding
# Details: pH 6.8; read-out: Dissociation constants (KD) for the interaction
# Protocol: Fluorescence spectra were recorded with a Shimadzu spectrofluorometer (Japan). The emission spectra of the tryptophan residues were recorded in a 1-cm quartz cell (Hellma Analytics, Germany). To avoid the measurement of the Tyr emission, the protein sample was excited at λ=295 nm with a slit width of 1.0 nm. Total fluorescence was calculated after the normalization of the fluorescence spectra and correction for dilution. In order to normalize the inner filter and self-absorption effects, the excitation was always carried out less than 0.05 OD. The spectra were recorded in a wavelength range of 300–500 nm. All studies were done at 25°C with the temperature of the samples measured in the cuvette with an accuracy of ± 0.2°C.
# The protein-ligand interactions were investigated by monitoring changes in the intrinsic protein fluorescence emission (θexc=295 nm). We applied ideal fluorescence titration and incubation methods for their intrinsic sensitivity and simplicity. For this purpose, Con A (1.8 µM) was incubated at 4°C overnight with increasing concentrations of MnTMPyP, ZnTPPS, and FeTMPyP. […] Applied porphyrin concentrations were consistent with minimizing artifacts due to aggregation phenomena. Con A-adenine interactions were studied by overnight incubation (at 4°C). […]
substance,measurement,value
"5,10,15,20-Tetrakis(4-sulfonatophenyl)-porphyrin-Au(III)chloride [AuTPPS]",Kd,490 ± 290 nM

# Reference: article PMC4475797, “New Activity of a Protein from Canavalia ensiformis” (Scientia Pharmaceutica, 2014)
